Results from patent EP3293174A1, “CRYSTALLINE SALTS OF BETRIXABAN” (SANDOZ AG, priority 2016, dated 2018).
Where a name gives a salt, the structure may show the parent alone. One block for each compound: values may come before it.

Key:
[1] = Determination of the solubility in water (solvent addition technique); assay type: physicochemical; conditions: in water at 25°C, estimated by solvent addition
Protocol: About 10 mg of crystalline betrixaban salt were weighed out into a vial. Water was added to the vial in aliquots of 500 µL and 200 µL until the salt was dissolved. In between the water additions the samples was sonicated for about 5 min, followed by shaking at 25°C for about 10 to 15 min.

[2] = WO 2012/031017; cited from earlier work

Solubility ([1]; hydrobromide): >3000 µg/mL
Structure (SMILES): COc1ccc(NC(=O)c2ccc(C(=N)N(C)C)cc2)c(C(=O)Nc2ccc(Cl)cn2)c1 [Betrixaban hydrobromide, form B, betrixaban hydrobromide]

Solubility ([1]; hydrochloride): >3000 µg/mL
Structure (SMILES): COc1ccc(NC(=O)c2ccc(C(=N)N(C)C)cc2)c(C(=O)Nc2ccc(Cl)cn2)c1 [Betrixaban hydrochloride, form B, betrixaban hydrochloride]

Solubility [1]: 2700 µg/mL
Structure (SMILES): COc1ccc(NC(=O)c2ccc(C(=N)N(C)C)cc2)c(C(=O)Nc2ccc(Cl)cn2)c1 [Betrixaban maleate form I, betrixaban maleate, reference compound]

Structure (SMILES): COc1ccc(NC(=O)c2ccc(C(=N)N(C)C)cc2)c(C(=O)Nc2ccc(Cl)cn2)c1 [Betrixaban maleate form II, betrixaban maleate]
relative humidity at which form II reversibly converts to form III [2]: above 25%
